# Measurements from patent US10287286B2, “Compounds” (Takeda Pharmaceutical Company Limited, priority 2015, dated 2019).
# Protein sequences, listed by entry. Tags and fused reporters are not part of them.
# UniProt Q96KS0, whole entry: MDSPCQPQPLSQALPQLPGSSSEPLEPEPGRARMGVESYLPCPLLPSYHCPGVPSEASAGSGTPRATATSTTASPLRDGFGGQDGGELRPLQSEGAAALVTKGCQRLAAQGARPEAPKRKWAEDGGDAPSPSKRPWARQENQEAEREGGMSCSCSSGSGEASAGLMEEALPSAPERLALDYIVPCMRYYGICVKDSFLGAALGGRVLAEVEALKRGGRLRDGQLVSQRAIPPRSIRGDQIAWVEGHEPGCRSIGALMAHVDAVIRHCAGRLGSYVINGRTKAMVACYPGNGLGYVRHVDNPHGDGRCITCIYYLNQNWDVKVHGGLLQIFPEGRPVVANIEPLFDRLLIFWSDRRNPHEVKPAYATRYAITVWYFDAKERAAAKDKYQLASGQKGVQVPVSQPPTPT
# Target: PHD1 enzyme (residues 1-407) (Homo sapiens (Human), UniProt Q96KS0)
# Test: PHD1 Enzyme Assay (UPLC-MS detection of hydroxylated peptide product)
# Assay type: biochemical
# Conditions: 20 nM, 60 min pre-incubation at room temperature
row,SMILES,IC50 [nM]
1,"N#Cc1ccc(-c2cc(NCCC(F)(F)F)cc3ncnn23)cc1 [Example 108, 4-{7-[(3,3,3-trifluoropropyl)amino]-[1,2,4]triazolo[1,5-a]pyridin-5-yl}benzonitrile]",9
2,"CN1CC(NC(=O)c2cc(-c3ccc(C#N)cc3)n3ncnc3c2)C1 [Example 70, 5-(4-cyanophenyl)-N-(1-methylazetidin-3-yl)-[1,2,4]triazolo[1,5-a]pyridine-7-carboxamide]",607
3,"CC(C)(C)OC(=O)N1CC(CNC(=O)c2cc(-c3ccc(C#N)cc3)n3ncnc3c2)C1 [Example 63, tert-butyl 3-({[5-(4-cyanophenyl)-[1,2,4]triazolo[1,5-a]pyridin-7-yl]formamido}methyl)azetidine-1-carboxylate]",714
4,"Cc1c(-c2cc(N)cc3ncnn23)ccc(C#N)c1F [Example 228, 4-{7-Amino-[1,2,4]triazolo[1,5-a]pyridin-5-yl}-2-fluoro-3-methylbenzonitrile hydrochloride]",68
5,"Cc1cc(C#N)ccc1-c1cc(N)nc2ncnn12 [Example 257, 4-{5-Amino-[1,2,4]triazolo[1,5-a]pyrimidin-7-yl}-3-methylbenzonitrile]",165
6,"N#Cc1ccc(-c2cc(N3CCCC3)nc3ncnn23)cc1 [Example 83, 4-[5-(pyrrolidin-1-yl)-[1,2,4]triazolo[1,5-a]pyrimidin-7-yl]benzonitrile]",406
7,"N#Cc1ccc(-c2cc(NCCCN3CCOCC3)cc3ncnn23)cc1 [Example 109, 4-(7-{[3-(morpholin-4-yl)propyl]amino}-[1,2,4]triazolo[1,5-a]pyridin-5-yl)benzonitrile]",77
8,"N#Cc1ccc(-c2cc(NCC(F)F)cc3ncnn23)cc1 [Example 106, 4-{7-[(2,2-difluoroethyl)amino]-[1,2,4]triazolo[1,5-a]pyridin-5-yl}benzonitrile]",10
9,"Fc1cc(Cl)ccc1-c1cccc2ncnn12 [Example 9, 5-(4-chloro-2-fluorophenyl)-[1,2,4]triazolo[1,5-a]pyridine]",307
10,"CN(c1cc(-c2ccc(C#N)cc2)n2ncnc2n1)C1CC1 [Example 99, 4-{5-[cyclopropyl(methyl)amino]-[1,2,4]triazolo[1,5-a]pyrimidin-7-yl}benzonitrile]",435
11,"COCCOC(=O)Nc1cc(-c2ccc(C#N)c(F)c2)n2ncnc2c1 [Example 196, 2-methoxyethyl N-[5-(4-cyano-3-fluorophenyl)-[1,2,4]triazolo[1,5-a]pyridin-7-yl]carbamate]",190

# Where a name gives a salt, the structure may show the parent alone.
